# Test system: Y79 human retinoblastoma cell line
# Assay: Presto blue cell viability assay in Y79 after 24 hours
# Format: cell-based
# Conditions: Y79, 24 hours
# Procedure: The cytotoxicity of melphalan and the melphalan derivatives 3a–3f was evaluated on the Y79 human retinoblastoma cell line in 2D settings using an incubation time of 24 hours at a temperature of 37 °C and 5% CO2, or using conditions mimicking mild hyperthermia, i.e. incubation at 42 °C for 1 hour followed by 23 hours at 37 °C, respectively. The IC50 values were determined using the presto blue cell viability assay (Table 1).
# The human retina (RPE1) and retinoblastoma (Y79) cell lines were purchased from ATCC, Switzerland. RPMI 1640, DMEM high glucose Glutamax and DMEM GlutaMAX media were obtained from Life Technologies, and fetal bovine serum (FBS) was obtained from Sigma. Cell culture was performed in RPMI 1640 with 20% FBS and DMEM high glucose Glutamax with 10% FBS for Y79 and RPE1, respectively. […]
# For thermal assays, the plates were placed in a heat chamber at 42 °C for 1 h and then transferred to a bioincubator at 37 °C for 71 h where the control plates were already placed. […] Fluorescence was measured using a […]
# plate reader (Tecan […] F500 reader, Switzerland) at 560 nm for […] and 590 nm for fluorescence. The normalization of the fluorescence’s intensities was conducted with GraphPad software using Gambogic acid and DMSO as positive and negative control, […]
structure (smiles),measurement,value
Cl.N[C@@H](Cc1ccc(N(CCCl)CCCl)cc1)C(=O)OCCC(F)(F)C(F)(F)C(F)(F)C(F)(F)C(F)(F)C(F)(F)C(F)(F)C(F)(F)C(F)(F)C(F)(F)F [Compound 3f],cytotoxicity relative to melphalan (in words),considerably less cytotoxic than melphalan

# — publication PMC11253858, “New melphalan derivatives for the treatment of retinoblastoma in combination with thermotherapy” (RSC Medicinal Chemistry, 2024)
